The target in this experiment is T1, nicotinic acetylcholine receptor (nAChR) from Torpedo californica (Tetronarce californica, UniProt P02710+P02712+P02714+P02718).
T1 construct: flash-frozen Torpedo electric organ was purchased from Aquatic Research Consultants (San Pedro, CA); tissue Aquatic Research Consultants (San Pedro, CA); host or cells: Torpedo electric organ; Membranes were solubilized in cholate, reconstituted in asolectin liposomes and microinjected as protein into Xenopus oocytes
The experiment is described as follows: Two-electrode voltage clamp of oocytes injected with Torpedo nAChRs: inhibition of acetylcholine-stimulated current. In kind it is cell-based. Here is the method: Sixteen hours after injection, the oocytes were clamped using a TEVC system. All ligands were dissolved in modified Barth’s solution at the indicated pH and were perfused into the chamber using a gravity-flow system. Thyroid hormones were initially dissolved in 0.1 M NaOH. […] Acetylcholine was applied to the bath surrounding the oocyte using a gravity-flow system at 10–13 mL/min. […] Each ligand perfusion lasted 60–70 seconds; after each perfusion, the bath solution was exchanged with ligand-free buffer until the current response signal had returned to baseline for at least 120 seconds before the next application of ligand(s). Data were recorded using iWorx LabScribe v1.959.
A general note: Two-electrode voltage clamp is typically applied to oocytes expressing channels or transporters.

The chains behind the UniProt entries cited, without tags or fusion partners. Residues count along the entry.
UniProt P02710, 25-461: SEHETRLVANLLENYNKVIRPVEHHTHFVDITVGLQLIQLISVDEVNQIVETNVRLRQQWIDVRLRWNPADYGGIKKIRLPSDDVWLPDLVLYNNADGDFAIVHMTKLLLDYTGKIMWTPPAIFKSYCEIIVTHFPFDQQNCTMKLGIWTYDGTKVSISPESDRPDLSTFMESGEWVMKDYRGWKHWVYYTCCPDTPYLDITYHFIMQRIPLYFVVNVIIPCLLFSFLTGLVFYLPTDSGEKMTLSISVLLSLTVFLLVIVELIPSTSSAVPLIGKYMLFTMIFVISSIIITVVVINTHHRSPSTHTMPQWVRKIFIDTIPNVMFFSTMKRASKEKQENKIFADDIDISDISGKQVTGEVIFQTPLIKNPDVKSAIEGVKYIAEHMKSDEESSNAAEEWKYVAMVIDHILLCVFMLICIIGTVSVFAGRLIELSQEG
UniProt P02712, 25-493: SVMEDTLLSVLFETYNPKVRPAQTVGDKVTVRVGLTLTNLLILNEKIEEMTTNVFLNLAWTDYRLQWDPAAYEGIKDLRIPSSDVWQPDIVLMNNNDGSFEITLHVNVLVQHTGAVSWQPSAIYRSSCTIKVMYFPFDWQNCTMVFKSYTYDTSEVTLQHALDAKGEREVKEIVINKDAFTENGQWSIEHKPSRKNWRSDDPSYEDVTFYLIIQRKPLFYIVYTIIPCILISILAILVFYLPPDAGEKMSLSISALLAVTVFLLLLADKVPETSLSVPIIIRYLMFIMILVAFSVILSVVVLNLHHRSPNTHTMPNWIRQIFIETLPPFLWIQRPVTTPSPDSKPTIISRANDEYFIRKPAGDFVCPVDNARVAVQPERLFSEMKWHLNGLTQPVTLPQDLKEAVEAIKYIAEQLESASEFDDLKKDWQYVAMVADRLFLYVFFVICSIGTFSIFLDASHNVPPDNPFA
UniProt P02714, 18-506: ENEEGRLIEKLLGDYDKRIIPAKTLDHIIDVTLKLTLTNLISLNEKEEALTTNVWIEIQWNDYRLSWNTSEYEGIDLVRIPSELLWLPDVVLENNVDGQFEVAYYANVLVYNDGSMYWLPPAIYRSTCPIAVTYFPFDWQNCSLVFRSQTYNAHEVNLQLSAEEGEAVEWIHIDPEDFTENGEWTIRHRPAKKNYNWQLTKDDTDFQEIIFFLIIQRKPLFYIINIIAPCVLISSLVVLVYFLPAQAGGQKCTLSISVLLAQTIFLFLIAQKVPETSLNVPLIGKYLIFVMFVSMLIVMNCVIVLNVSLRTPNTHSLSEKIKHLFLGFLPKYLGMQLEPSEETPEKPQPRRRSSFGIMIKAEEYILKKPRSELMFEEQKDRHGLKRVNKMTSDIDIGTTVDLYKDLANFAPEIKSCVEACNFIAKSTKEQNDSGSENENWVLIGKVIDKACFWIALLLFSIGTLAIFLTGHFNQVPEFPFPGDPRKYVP
UniProt P02718, 22-522: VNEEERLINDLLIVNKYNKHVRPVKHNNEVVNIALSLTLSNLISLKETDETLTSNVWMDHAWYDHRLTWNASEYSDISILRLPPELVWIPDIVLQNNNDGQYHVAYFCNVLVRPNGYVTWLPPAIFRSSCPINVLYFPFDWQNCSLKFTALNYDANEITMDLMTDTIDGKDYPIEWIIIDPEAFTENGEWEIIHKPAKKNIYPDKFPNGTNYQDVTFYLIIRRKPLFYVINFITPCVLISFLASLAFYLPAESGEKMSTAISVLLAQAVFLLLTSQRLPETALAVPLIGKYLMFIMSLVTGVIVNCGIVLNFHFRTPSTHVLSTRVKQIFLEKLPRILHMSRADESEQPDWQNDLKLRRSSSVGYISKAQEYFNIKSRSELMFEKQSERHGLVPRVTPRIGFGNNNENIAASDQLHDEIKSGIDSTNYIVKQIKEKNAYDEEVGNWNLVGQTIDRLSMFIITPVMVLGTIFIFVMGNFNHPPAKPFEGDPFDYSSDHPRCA

Read-outs that look alike come from different tables or passages of the source.

Consider pregnenolone sulfate [PS], for which the IC50 (usually the concentration needed to halve the response being measured) was 0.77 µM (T3/PS pH 7, T3 pH 7.2, fit Top = 100, Hill Slope = 1); 4.6 µM (T3/PS pH 7.5, T3 pH 7.7, fit Top = 100, Hill Slope = 1, read-out: IC50); 3.5 µM (T3/PS pH 8, T3 pH 8.2, fit Top = 100, Hill Slope = 1, read-out: IC50); 10.5 µM (T3/PS pH 8.5, T3 pH 8.7, fit Top = 100, Hill Slope = 1, read-out: IC50); 2.4 µM (T3/PS pH 9, T3 pH 9.2, fit Top = 100, Hill Slope = 1, read-out: IC50); 4.9 ± 3 µM (co-applied with 30 μM acetylcholine, TEVC, read-out: IC50, inhibition of nAChR response to acetylcholine).

The values above are taken from paper PMC6777777 (PLoS ONE, 2019).
